# Reference: ChEMBL document CHEMBL3886577, “N-((6-amino-pyridin-3-yl)methyl)-heteroaryl-carboxamides” (2016)
# Chains of the proteins cited; added tags and fusions are not shown. Residues count along the entry.
# UniProt P03952, 20-390 limits assumed: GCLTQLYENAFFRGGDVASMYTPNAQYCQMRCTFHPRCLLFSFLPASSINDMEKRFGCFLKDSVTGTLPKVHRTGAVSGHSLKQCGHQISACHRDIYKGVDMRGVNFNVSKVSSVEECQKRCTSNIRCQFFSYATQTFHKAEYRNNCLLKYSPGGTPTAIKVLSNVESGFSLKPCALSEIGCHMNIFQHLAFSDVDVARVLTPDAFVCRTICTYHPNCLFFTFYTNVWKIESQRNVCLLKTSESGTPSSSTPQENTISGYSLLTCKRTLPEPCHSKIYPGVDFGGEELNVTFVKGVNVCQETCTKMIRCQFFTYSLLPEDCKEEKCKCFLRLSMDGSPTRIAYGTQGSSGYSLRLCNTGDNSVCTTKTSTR
# UniProt P03952, 391-638 limits assumed: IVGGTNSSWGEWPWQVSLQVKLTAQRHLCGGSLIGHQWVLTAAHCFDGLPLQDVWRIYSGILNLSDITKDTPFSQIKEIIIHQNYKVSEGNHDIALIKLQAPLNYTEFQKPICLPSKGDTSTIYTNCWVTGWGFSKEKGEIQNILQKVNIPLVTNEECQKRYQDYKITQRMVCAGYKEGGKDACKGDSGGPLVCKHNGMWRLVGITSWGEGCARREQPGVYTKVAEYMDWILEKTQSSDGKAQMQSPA
# Biological target: Plasma kallikrein (Homo sapiens, UniProt P03952)
# Test: In-vitro Plasma Kallikrein Inhibition: Enzymatic reactions were conducted in ⿿assay buffer⿿, comprising 50 mM Hepes/NaOH at pH 7.8, 150 mM NaCl, 1 mM EDTA and 0.05% (w/v) CHAPS. For the determination of IC50 values, the assays were performed at room temperature in 384-well plates with a total assay volume of 25.25 ul per well. The test compound was dissolved in 90% (v/v) DMSO/water. For the assays, 250 nL of the 90% (v/v) DMSO/water solution or compound solution were added per well, followed by the addition of 12.5 ul protease solution (protease in assay buffer). The final assay concentration of the human plasma kallikrein was nominally 25 pM, the 11 compound concentrations in the dilution series were in the range form 1 nM to 100 uM. After 1 hour of pre-incubation at room temperature, the reactions were started by the addition of 12.5 ul substrate solution (in assay buffer, final assay concentration was 0.5 uM). After the addition of the substrate solution, the final DMSO concentration in the assay was 0.9% (v/v).
# Assay type: cell-free
row,SMILES,IC50 [nM]
1,Cc1cc(N)nc(C)c1CNC(=O)c1cn(Cc2ccc(Cn3nccc3C)cc2)nn1,0.1
2,Cc1cc(C)n(Cc2ccc(Cn3cc(C(=O)NCc4c(C)cc(N)nc4C)cn3)cc2)n1,0.134
